Reference: PubChem BioAssay AID688 (PCMD, 2007)
Only a part is listed here, and it is no random draw. Active and inactive are the calls of the source.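 Rule for the calls: active = mutant luminescence inhibited past about 50% while wild type luminescence and mutant growth stay under set limits (limit read from the data); inconclusive = mutant versus wild type luminescence inhibition gap past a set limit; inactive = the rest.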

Test: mutant yeast GCN4 reporter luminescence inhibitors – S. cerevisiae, eIF2B-epsilon R284H, Beta-Glo luminescence, primary screen (AID 688)
Conditions: GCN4-lacZ luminescence, active compounds read high, screened at 25 µM (by protocol)

Q: Which inhibition does the source give for `N#CC1(Nc2ccccc2)CCN(CCc2ccccc2)CC1` here?
A: Its inhibition is inactive: -39%.

Q: Which inhibition does the source give for `N/C(=N\O)c1c(N)no[n+]1[O-]` here?
A: Its inhibition is inactive: 22.5%.

Q: With `c1ccc(CN2CCC(Nc3ccccc3)CC2)cc1` as the molecule, how does the inhibition read?
A: The inhibition was inactive: 10.9%.

Q: Which inhibition does the source give for `CCC(CO)(C(=O)OC1CN2CCC1CC2)c1ccccc1` (centres undefined) here?
A: The inhibition was inactive: 13.1%.
